Data: patent US20170129903A1, “COMPOUNDS COMPRISING 1,1a,2,5a-TETRAHYDROSPIRO[INDOLE-3,2a-PYRROLE]-2,5a-DIONE SYSTEM AS INHIBITORS P53-MDM2 PROTEIN-PROTEIN INTERACTION” (ADAMED SP. Z O.O., priority 2014, published 2017)

Amino acid sequences for entries named in this document (tags omitted). Residues count along the entry.
UniProt Q00987, 1-111 limits assumed: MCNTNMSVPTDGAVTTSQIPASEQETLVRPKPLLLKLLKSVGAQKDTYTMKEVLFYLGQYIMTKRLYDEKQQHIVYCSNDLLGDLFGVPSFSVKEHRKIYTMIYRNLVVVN

Experiments:
[1] = test system: SJSA-1 osteosarcoma cell line; assay: MTT cell viability assay; settings: read-out: IC50 (μM) SJSA-1, 72 h incubation, average of 2-5 experiments
Protocol: The effect of the invented p53-Mdm2 inhibitors on cell viability has been assessed using MTT assay. It is a colorimetric assay that measures conversion of tetrazolium ring of the soluble yellow dye (MTT) into insoluble purple formazan. This process is catalysed solely in mitochondrial dehydrogenases of living cells.
Cells were seeded on 96-well plates and then treated with successive dilutions of tested compounds. After 72 h incubation, MTT was added to the final concentration 0.5 mg/ml. The cells were further incubated for the next 4 h. Then the solution was drained and the remaining formazan crystals were dissolved in 100 μl DMSO. […] All the MTT experiments were independently repeated 2-5 times. Dose-dependent binding curves and IC50 values were calculated using GraphPad Prism 5.

[2] = target: p53-Mdm2 interaction (N-terminal domain of Mdm2 protein, amino acids 1-111) (Homo sapiens, UniProt Q00987); assay: Fluorescence polarization (FP) binding assay of p53-Mdm2 interaction; settings: read-out: Ki (nM) p53-Mdm2, 130 nM Mdm2, FAM-labelled p53 peptide, Ki transformed from IC50 using Kenakin equation
Protocol: The inhibition of p53-Mdm2 interaction was measured using a fluorescence polarization (FP) binding assay. FP measures the rotational movement of molecules in a homogenous suspension. For this assay, N-terminal domain of Mdm2 protein (amino acids 1-111) is combined with a fluorescein-labelled (FAM) peptide derived from p53 trans-activation domain. Upon excitation of the fluorescent ligand with linearly polarized light, […]. If the peptide is bound by Mdm2, rotation will slow down and the perpendicular component will decrease. […]
Fluorescence polarization experiments were read on Tecan Infinite M1000 reader with the 470 nm excitation and 520 nm emission filters for fluorescein. The fluorescence polarization was measured in black 96-well plates (Corning, CLS3991) in room temperature. […]
The test was performed by combining successive dilution of compounds diluted in dimethyl sulfoxide (DMSO, 5% final concentration) with 130 nM Mdm2 in reaction buffer (PBS, 0.1% CHAPS, 5 mM DTT (dithiothreitol)). […] Final reading was performed after 90 minutes of incubation. Dose-dependent binding curves and IC50 values were calculated using GraphPad Prism5 and next transformed to Ki values using Kenakin equation.

- IC50 [1]: 14.7 µM
- Ki [2]: 141 nM
Compound: CCc1cccc(-n2nc3c(c2C(C)C)C2(C(=O)Nc4cc(Cl)ccc42)N(c2cc(Cl)ccc2C)C3=O)c1 (centres unmarked)
